Results: the NIST ThermoML archive (doi:10.1021/acs.jced.5b00980)

Experiment: activity coefficient (dimensionless); of the first substance listed, at infinite dilution; xn = mol fraction of the nth substance listed
Conditions: 100 kPa, Liquid, Chromatography, x1 = 0

`CCCCOCCCC` [dibutyl ether] + CCCC[P+](CC)(CCCC)CCCC.CCOP(=O)([O-])OCC showed an activity coefficient (328.15 K) of 3.79 ± 0.26, an activity coefficient (338.15 K) of 3.68 ± 0.25 and an activity coefficient (348.15 K) of 3.54 ± 0.24. For the same compound, the activity coefficient (358.15 K) was 3.42 ± 0.23 and the activity coefficient (368.15 K) was 3.31 ± 0.23.

Numbers after ± are expanded uncertainties.
